This note sets out measurements from patent US20110250133A1, “GASTRIN RELEASING PEPTIDE COMPOUNDS” (priority 2003, published 2011).

By UniProt entry, the sequences of proteins in these tests, tags left out. Where a name states a change or a piece, a line headed by the entry shows the natural chain unless it says otherwise.
UniProt P30550: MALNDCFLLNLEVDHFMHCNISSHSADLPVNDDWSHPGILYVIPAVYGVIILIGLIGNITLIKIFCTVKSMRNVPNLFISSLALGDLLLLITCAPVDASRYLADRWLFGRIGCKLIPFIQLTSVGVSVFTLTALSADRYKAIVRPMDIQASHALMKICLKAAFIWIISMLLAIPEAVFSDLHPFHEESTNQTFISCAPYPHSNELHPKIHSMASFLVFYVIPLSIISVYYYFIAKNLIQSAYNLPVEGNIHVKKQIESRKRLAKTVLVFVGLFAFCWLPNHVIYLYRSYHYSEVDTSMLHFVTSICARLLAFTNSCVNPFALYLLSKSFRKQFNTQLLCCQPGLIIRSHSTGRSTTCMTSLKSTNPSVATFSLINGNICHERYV
UniProt P32247: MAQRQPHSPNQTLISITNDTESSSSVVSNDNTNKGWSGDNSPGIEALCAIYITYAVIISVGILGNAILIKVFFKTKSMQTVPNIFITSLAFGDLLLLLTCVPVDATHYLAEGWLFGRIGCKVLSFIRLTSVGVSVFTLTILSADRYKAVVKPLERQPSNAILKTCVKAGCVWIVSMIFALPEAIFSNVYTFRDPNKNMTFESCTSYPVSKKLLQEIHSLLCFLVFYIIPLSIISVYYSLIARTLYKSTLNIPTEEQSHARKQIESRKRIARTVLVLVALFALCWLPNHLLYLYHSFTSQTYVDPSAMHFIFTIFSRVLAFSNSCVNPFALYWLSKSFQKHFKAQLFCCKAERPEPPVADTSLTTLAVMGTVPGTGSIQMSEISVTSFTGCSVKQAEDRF

pIC50: −log10 of the molar value. Read-outs that look alike come from different tables or passages of the source.

Data set [1] relates to PC3 tumor-bearing nude mice. The data set is classed as in vivo, mouse. The following applies: 177Lu-labeled, compared with control DO3A-monoamide-Aoc-QWAVGHLM-NH2.
Data set [2] has as its system human PC-3 nude mouse model. It counts as in vivo. The settings on record: 177Lu complex, i.v.
In data set [3] the target is T1, GRP-R (Homo sapiens, UniProt P30550).
T1 construct: host or cells: PC3 (PC-3) human prostate cancer cells, intact adherent cells
Briefly: Competition studies of modified BBN analogs with 125I-BBN for GRP-R in PC3 cells (Example LXI). The following applies: for pIC50: read-out: IC50 PC3/GRP-R. It counts as binding.

The target in data set [4] is human bombesin receptor subtype 3 (BB3-R) (human) (UniProt P32247). Briefly: competition with 125I-universal ligand, receptor autoradiography on human cancer tissue.
For data set [5], the target named is T2, NMB-R (Rattus norvegicus, UniProt P24053).
T2 construct: C6, an NMB-R expressing rodent glioblastoma cell line; host or cells: C6 glioblastoma cells, intact adherent cells
T2 sequence (P24053 1-390): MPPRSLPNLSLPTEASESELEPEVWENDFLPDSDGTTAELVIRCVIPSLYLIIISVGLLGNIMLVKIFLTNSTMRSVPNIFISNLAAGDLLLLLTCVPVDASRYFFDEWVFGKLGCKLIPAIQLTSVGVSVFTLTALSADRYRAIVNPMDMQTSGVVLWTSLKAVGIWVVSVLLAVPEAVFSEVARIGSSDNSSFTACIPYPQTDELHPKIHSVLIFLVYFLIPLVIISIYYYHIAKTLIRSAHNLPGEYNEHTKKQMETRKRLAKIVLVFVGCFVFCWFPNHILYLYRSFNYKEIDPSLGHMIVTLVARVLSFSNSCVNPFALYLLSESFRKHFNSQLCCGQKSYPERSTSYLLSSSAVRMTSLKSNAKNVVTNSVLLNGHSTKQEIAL
Briefly: Competition with 125I-NMB for NMB-R in C6 cells (linker specificity).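 Note: test cells: rodent glioblastoma C6 line carrying NMB-R, human prostate cancer PC3 line carrying GRP-R, affinity fitted by one-site competition nonlinear regression.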 It counts as binding, rodent. The settings on record: Table 16.

For the substance “N-[4-[[[[[4,7,10-Tris(carboxymethyl)-1,4,7,10-tetraazacyclododec-1-yl]acetyl]amino]acetyl]amino]benzoyl]-L-glutaminyl-L-tryptophyl-L-alanyl-L-valyl-glycyl-L-histidyl-L-leucyl-L-methioninamide [Compound L70]”, in data set [1], the “uptake in the mouse pancreas” value is “much higher”. Also, the “Blood 24 h % ID” value in data set [2] (24 h) came to 0.02 ± 0.00 % ID. In addition, in data set [2] (7 d), the “Blood 7 d % ID” value is on record as 0.00 ± 0.00 % ID.

Turning to “N-[(3β,5β,12α)-3-[[[4,7,10-Tris(carboxymethyl)-1,4,7,10-tetraazacyclododec-1-yl]acetyl]amino]-glycyl-4-aminobenzoyl-L-glutaminyl-L-tryptophyl-L-alanyl-glycyl-L-histidyl-L-phenylalanyl-L-leucinamide [Compound L224]”, the pIC50 in data set [3] (Table 17) is less than 6.30.

Take “N-[(3β,5β,12α)-3-[[[4,7,10-Tris(carboxymethyl)-1,4,7,10-tetraazacyclododec-1-yl]acetyl]amino]-glycyl-4-aminobenzoyl-L-leucyl-L-tryptophyl-L-alanyl-L-threonyll-glycyl-L-histidyl-L-phenylalanyl-L-methioninamide [Compound L227]”: the pIC50 in data set [3] (Table 16) was 7.55.

In the case of “N-[(3β,5β,12α)-3-[[[4,7,10-Tris(carboxymethyl)-1,4,7,10-tetraazacyclododec-1-yl]acetyl]amino]-glycyl-4-aminobenzoyl-L-leucyl-L-tryptophyl-L-alanyl-L-valinyl-glycyl-L-serinyl-L-phenylalanyl-L-methioninamide [Compound L225]”, the pIC50 in data set [3] (Table 16) is 6.62.

Consider “[DTyr6, βAla11, Phe13, Nle14]-BBN(6-14) (peptide)”, for which the pIC50 in data set [4] is 8.96.

For yGNLWATGHFM-NH2, the pIC50 is 9.80 in data set [5] and 6.05 in data set [3] (Table 16). Moreover, the IC50 – broadly, the concentration at which inhibition is half-maximal – in data set [3] (Table 15, read-out: IC50 [nM], competition with 125I-BBN for GRP-R in PC3 cells) was found to be 450 nM.
